This note sets out measurements from PubChem BioAssay AID602250 (The Scripps Research Institute Molecular Screening Center, 2012).

A word on the inhibition: it is the relative decrease from the control value, in per cent.

This is a selection; strong and weak results do not stand in their true shares. Some of these compounds have results that are not shown, active ones among them. The source made the active and inactive calls.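 Rule for the calls: active = inhibition above a per-plate cutoff, the plate's mean sample inhibition plus 3 SD (cut at about 24% in these data); inactive = the rest.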

This experiment is described as follows: calcium signal blockers in parental CHO-K1 cells – cell-based, Fluo-8 calcium fluorescence, full deck, 1536-well, counter-screen for M1 antagonist project, primary screen (AID 602250).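 Note: 0% = DMSO plus EC80 ATP and 100% = DMSO alone without ATP.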 As to conditions: ATP-induced calcium, Fluo-8 fluorescence, at 3 µM, hits give high values. On the technique in general: The purpose of a counterscreen is to sort out artefacts and off-target activity.
On to `COc1cccc(C(=O)NCC2(N3CCCCC3)CCCCC2)c1`, for which the inhibition was inactive: -13%.
Under `COc1ccc(Cl)cc1C(=O)NCC1(N(C)C)CCCCC1` stands inactive: -5.88%; under `O=C(NCC1(N2CCCCC2)CCCCC1)c1cccc(Cl)c1`, inactive: -18.7%.
Consider `CN(C)C1(CNC(=O)c2ccc(Br)cc2)CCCCC1`, for which the inhibition was inactive: -3.79%.
On to `COc1cc(C(=O)NCC2(N(C)C)CCCCC2)c([N+](=O)[O-])cc1OC`, for which the inhibition was inactive: -19%.
Under `COc1ccc(Br)c(C(=O)NCC2(N3CCCCC3)CCCCC2)c1` stands inactive: -14.7%; under `C=C(C)C#CC(O)(C(=O)OC1CCN(C)CC1)c1ccccc1` (stereo unspecified), inactive: -1.24%; under `CN(C)c1cccc(C(=O)NCC2(N(C)C)CCCCC2)c1`, inactive: -9.23%.
The figure for `CC(C)Oc1ccc(C(=O)NCC2(N(C)C)CCCCC2)cc1` is inactive: -2.76%.
Under `O=C(OCCN1CCCC1)C(O)(c1ccccc1)c1ccccc1` stands inactive: -6.59%; under `O=C(OC1CN2CCC1CC2)C(CO)(c1ccccc1)c1ccccc1` (stereo unspecified), inactive: 2.74%.
On to `CC(C)N1C(=O)CC2(CCN(CCOC(=O)C(O)(c3ccccc3)c3ccccc3)CC2)C1=O`, for which the inhibition is inactive: -11.7%.
The figure for `CCN(CC)CC(C)C(C)OC(=O)C(O)(c1ccccc1)c1ccccc1` (stereo unspecified) is inactive: -13.8%.
Under `COc1cc(SC)ccc1C(=O)NCC1(N(C)C)CCCCC1` stands inactive: -4.03%.
The figure for `Cc1ccc(C(=O)NCC2(N3CCCCC3)CCCCC2)cc1` is inactive: -17.3%; for `O=C(NCC1(N2CCCCC2)CCCCC1)c1cc([N+](=O)[O-])ccc1Cl` it is inactive: -10%; for `CN1[C@@H]2CC[C@H]1CC(OC(=O)C(O)(c1ccccc1)c1ccccc1)C2` (stereo partly specified) it is inactive: -11.1%.
As to `C=CCN1CCN(CCOC(=O)C(O)(c2ccccc2)c2ccccc2)CC1`, the inhibition was inactive: -15.5%.
For the compound `O=C(NCC1(N2CCCCC2)CCCCC1)c1cc(F)c(F)cc1Cl`, the inhibition is inactive: -1.46%.
Under `CCN1CCCC(OC(=O)C2(O)c3ccccc3C=Cc3ccccc32)C1` (stereo unspecified) stands inactive: -0.52%; under `Cc1cc(C(=O)NCC2(N3CCCCC3)CCCCC2)ccc1[N+](=O)[O-]`, inactive: 0.01%.
The figure for `O=C(NCC1(N2CCCCC2)CCCCC1)c1cccc(Br)c1` is inactive: -13.5%; for `COc1ccc(C(=O)NCC2(N(C)C)CCCCC2)cc1` it is inactive: 0.53%; for `Cc1ccccc1C(=O)NCC1(N2CCCCC2)CCCCC1` it is inactive: -13.5%.
The figure for `CN(C)c1ccc(C(=O)NCC2(N(C)C)CCCCC2)cc1` is inactive: 3.87%; for `CN(C)C1CCCC1OC(=O)C(O)(c1ccccc1)c1ccccc1` (stereo unspecified) it is inactive: 7.58%.
